## Yeast mating assay 1: variants of the scFv Ab-14

Data: MIT Lincoln Laboratory AlphaSeq set, Engelhart et al. 2022, doi:10.1038/s41597-022-01779-4, as distributed in FLAb.

All variants were tested on one target, the spike HR2 peptide PDVDLGDISGINAS (SARS-CoV-2).

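Phage display of a naive human antibody library on the peptide gave the parent. AAYL49 was designed without a model: most single CDR substitutions and a random sample of double and triple ones. The assay is AlphaSeq: two haploid yeast populations carry antibody and antigen on their surface. Pairs that bind mate more often; barcode pairs of the diploids are counted by sequencing. The ratio of observed to expected reads was calibrated, replicate by replicate, on BCL2-family standards whose Kd was known from biolayer interferometry. Each pool was mated in three replicate cultures.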

The variants keep the light chain, the linker and the frameworks of Ab-14 (scFv order VH, three GGGGS repeats, VL).
VH: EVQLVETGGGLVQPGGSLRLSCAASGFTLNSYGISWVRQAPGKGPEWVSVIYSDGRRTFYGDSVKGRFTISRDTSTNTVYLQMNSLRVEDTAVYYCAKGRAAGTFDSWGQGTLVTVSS
VL: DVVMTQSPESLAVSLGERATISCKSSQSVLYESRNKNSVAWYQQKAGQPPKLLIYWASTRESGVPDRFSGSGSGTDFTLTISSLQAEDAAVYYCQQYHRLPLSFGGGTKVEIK

Each variant is given by its three heavy chain CDRs, as the data file delimits them; those of the parent are GFTLNSYGIS, VIYSDGRRTFYGDSVK, GRAAGTFDS.
Every variant below is changed at Y60 of the VH (sequential numbering).
Kd is apparent (estimated from mating counts) and averaged on the log scale over replicates with a signal. Smaller is tighter.
"nd" marks a missing value. The strain was present, yet no cells mated with the target were sequenced in any replicate, which points to weak or no binding.
Nonspecific signal, from three strains lacking the peptide, appeared in 15% of pairings of library AAYL49, centred on 11 µM (5% of these signals below 680 nM); values are not corrected for it. For each scFv, signals with the empty controls are counted beside the result.

GFTLNSMGIS | VIYSDGRRTFWGDSVK | GRAAGQFDS: nd (0 of 3 replicates; controls 1 of 9).
GFTLNIYGDS | VIYSDGRRTFLGDSVK | GRAAGTFDS: nd (0 of 3 replicates; controls 0 of 9).
GFTLNSYGIS | CIWSDGRRTFSGDSVK | GRAAGTFDS: nd (0 of 3 replicates; controls 0 of 9).
GFTLNSYGIS | VIYSDGRRTFVGDSVK | GRAVGTFDS: nd (0 of 3 replicates; controls 1 of 9).
GFTLNSYGIS | VIYSTGRRTFPGDSVK | GRAAGTFDM: nd (0 of 3 replicates; controls 1 of 9).
GFTLNSYGIS | VIYSDGRRWFEGDDVK | GRAAGTFDS: nd (0 of 3 replicates; controls 1 of 9).
GFTLNSYGIS | VIYSDGRRTFMGDSEK | GRTAGTFDS: 19 nM (3 of 3 replicates; controls 1 of 9).
GFTLNSYGIS | VIYSDGRRTFPGDSVK | GRAADTFPS: nd (0 of 3 replicates; controls 1 of 9).
GFTLNSYGIS | VIYSDGRRTFTGDSVK | GRTAGTFDS: 55 nM (3 of 3 replicates; controls 2 of 9).
GFTLNNYGIS | VIYSDGRRTFRGDSVK | GRAAGQFDS: nd (0 of 3 replicates; controls 1 of 9).
GFTLNSYGIS | VCYSDGRRTSTGDSVK | GRAAGTFDS: nd (0 of 3 replicates; controls 0 of 9).
GFTLNSYGIS | VIYSDGRRTFFGDSVK | GRAAGTFIS: nd (0 of 3 replicates; controls 0 of 9).
GFTLNSYGIS | VIYSDGRRTFWGDSVK | GRAAGTFDS: nd (0 of 3 replicates; controls 0 of 9).
GFTLNSYGIS | VIYSDGRRTWLGDSVK | GRAAGVFDS: 2.4 µM (1 of 3 replicates; controls 2 of 9).
GFALNSYGKS | VIYSDGRRTFGGDSVK | GRAAGTFDS: nd (0 of 3 replicates; controls 0 of 9).
GFTLNTYGIS | VIYSDGRRTFTGDSWK | GRAAGTFDS: 300 nM (3 of 3 replicates; controls 0 of 9).
GFTLMSYGIS | NIYSDGRRTFLGDSVK | GRAAGTFDS: nd (0 of 3 replicates; controls 1 of 9).
GFTCNSYGKS | VIYSDGRRTFGGDSVK | GRAAGTFDS: nd (0 of 3 replicates; controls 0 of 9).
GFTLNSYGIS | VIYSDGRRTFLGDSVK | GSAAGTVDS: 150 nM (3 of 3 replicates; controls 2 of 9).
GFTLNSYGIS | VIYSDGRRTFDGDSVK | GRAAGTFDG: nd (0 of 3 replicates; controls 0 of 9).
GFTLNSYGIS | VGMSDGRRTFEGDSVK | GRAAGTFDS: nd (0 of 3 replicates; controls 0 of 9).
GFTLNSYGIY | VICSDGRRTFKGDSVK | GRAAGTFDS: nd (0 of 3 replicates; controls 0 of 9).
GFTLNEYGIS | VIYSDGRRTFSGDSVK | GRAAGTFDS: 11 nM (3 of 3 replicates; controls 1 of 9).
GFTLNSYGIS | VIYSDGRRTFAGDNVK | GRAAGTFDF: 710 nM (3 of 3 replicates; controls 1 of 9).
GFTLNSYGIS | VIYSDGRRTFKGDSVK | GRAAGCFCS: 100 µM (1 of 3 replicates; controls 3 of 9).
GFTLNSYGIS | VIYSDGRRTFCGDSVK | GRAAGTFDS: 630 nM (3 of 3 replicates; controls 2 of 9).
GFTLNSYGIS | VIYQDGRRTFGGDSVK | GRAAGTFDS: nd (0 of 3 replicates; controls 0 of 9).
GFTLNSYGES | VIYSDGRRTFGGDSVK | GRALGTFDS: 7.1 µM (2 of 3 replicates; controls 6 of 9).
GFTLNSYGIK | VIYSDGRRTFGGDSVK | GRAAGTRDS: 42 µM (1 of 3 replicates; controls 0 of 9).
GFTLNSYGIS | VIYSDGHRTFNGDSVK | GRAAGEFDS: 110 µM (1 of 3 replicates; controls 1 of 9).
GFTLNSMGIS | VIVSDGRRTFNGDSVK | GRAAGTFDS: 2.2 µM (1 of 3 replicates; controls 0 of 9).
GFTLNSYGIS | VIYSDGRRTFKGDSVK | GRAAGTFDS: 5.4 µM (1 of 3 replicates; controls 0 of 9).
GFTLNSYGIS | VIDSDGRGTFRGDSVK | GRAAGTFDS: 190 µM (2 of 3 replicates; controls 1 of 9).
GFTLNSYGIS | VIYSDGRRTFEGDSVK | GRYAGTFDS: 270 nM (3 of 3 replicates; controls 0 of 9).
GFTLNSYSIS | VIYSDGRRTFTGDSVK | GRALGTFDS: 17 µM (2 of 3 replicates; controls 5 of 9).
GFTLNSYGID | VIYSDGRRTFRGDSVD | GRAAGTFDS: nd (0 of 3 replicates; controls 2 of 9).
GFTLNSYGIS | VIYSDGRRTFNGDSVK | MRAAGTFDS: 6.3 µM (1 of 3 replicates; controls 2 of 9).
GFTLNSVGIS | VIYSDGRRTFKGDAVK | GRAAGTFDS: nd (0 of 3 replicates; controls 0 of 9).
GFTLNTYGIS | VIKSDGRRTFSGDSVK | GRAAGTFDS: nd (0 of 3 replicates; controls 1 of 9).
GFTLMSKGIS | VIYSDGRRTFLGDSVK | GRAAGTFDS: 240 µM (2 of 3 replicates; controls 3 of 9).
GFTLNMYGIS | VIYSDGRRTFLGDWVK | GRAAGTFDS: nd (0 of 3 replicates; controls 1 of 9).
GFTLNSYEIS | VIYSDGRRTFQGDSVK | GRARGTFDS: nd (0 of 3 replicates; controls 0 of 9).
GFTLNSYGIS | VAYSDGVRTFTGDSVK | GRAAGTFDS: nd (0 of 3 replicates; controls 1 of 9).
GFTLQSYGIS | VIYSDGQRTFMGDSVK | GRAAGTFDS: 2.1 µM (1 of 3 replicates; controls 3 of 9).

The 4 strongest on average among those seen in every replicate, once more:

CDR-H1	CDR-H2	CDR-H3	apparent Kd	seen in	signal with controls
GFTLNEYGIS	VIYSDGRRTFSGDSVK	GRAAGTFDS	11 nM	3 of 3	1 of 9
GFTLNSYGIS	VIYSDGRRTFMGDSEK	GRTAGTFDS	19 nM	3 of 3	1 of 9
GFTLNSYGIS	VIYSDGRRTFTGDSVK	GRTAGTFDS	55 nM	3 of 3	2 of 9
GFTLNSYGIS	VIYSDGRRTFLGDSVK	GSAAGTVDS	150 nM	3 of 3	2 of 9